Measured values from US6391899B1, “Compounds and compositions for treating tissue ischemia” (North Shore—Long Island Jewish Research Institute, priority 1998, dated 2002).
Where two headings read alike, the source gives them in different places. Marks after values point to notes of the source that are not given here.

Columns and labels:
focal cerebral ischemia [1] = conditions: 25 mg/kg i.p. 15 minutes post-ischemia; measured 25 hours after onset of ischemia
focal cerebral ischemia [2] = conditions: 320 mg/kg i.p. 15 minutes post-ischemia, then every 8 hr; from Cockroft et al.; cited from earlier work
brain 3-aminopropanal = assay: Brain 3-aminopropanal level after middle cerebral artery occlusion (derivatization and HPLC); conditions: 320 mg/kg i.p. 15 minutes post-ischemia, then every 8 hr; 25 hours

SMILES | Infarct Volume (mm^3) (focal cerebral ischemia [1]) | Infarct Volume (mm^3) (focal cerebral ischemia [2]) | Brain 3-aminopropanal level (μmol/g protein) (brain 3-aminopropanal)
CCN(CC)CCCC(C)Nc1ccnc2cc(Cl)ccc12 (stereo not drawn) [chloroquine] | 27 ± 8* mm^3 |  | 
N=C(N)NN [aminoguanidine] |  | 12 ± 2*# mm^3 | not detectable
